Source: patent US10058550B2

Sequences of proteins named here, by UniProt entry; tags and fusion partners are left off.
UniProt P35414, whole entry: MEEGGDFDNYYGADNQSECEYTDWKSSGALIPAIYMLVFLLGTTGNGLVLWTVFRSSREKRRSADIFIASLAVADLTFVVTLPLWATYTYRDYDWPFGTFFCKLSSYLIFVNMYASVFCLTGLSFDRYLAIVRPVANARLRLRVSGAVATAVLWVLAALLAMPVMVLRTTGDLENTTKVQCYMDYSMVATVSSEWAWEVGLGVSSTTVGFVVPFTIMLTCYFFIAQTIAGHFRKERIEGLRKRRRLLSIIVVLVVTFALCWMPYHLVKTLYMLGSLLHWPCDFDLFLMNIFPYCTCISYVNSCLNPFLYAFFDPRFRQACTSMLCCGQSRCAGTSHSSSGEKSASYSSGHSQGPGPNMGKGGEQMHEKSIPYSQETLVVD

Target: human APJ receptor (Homo sapiens (Human), UniProt P35414)
Conditions: read-out: Activity hAPJ SPA EC50 IP

## CCO[C@@H](c1ncc(C)cn1)[C@@H](C)S(=O)(=O)Nc1nnc(-c2cncc(C)c2)n1-c1c(F)cccc1F (relative stereo)
  EC50: 5.8 nM
